# Assay results as given in patent publication US20170306050.
# By UniProt entry, the sequences of proteins in these tests, tags left out.
# α1-antitrypsin, P01009, UniProt P01009, whole entry, looked up: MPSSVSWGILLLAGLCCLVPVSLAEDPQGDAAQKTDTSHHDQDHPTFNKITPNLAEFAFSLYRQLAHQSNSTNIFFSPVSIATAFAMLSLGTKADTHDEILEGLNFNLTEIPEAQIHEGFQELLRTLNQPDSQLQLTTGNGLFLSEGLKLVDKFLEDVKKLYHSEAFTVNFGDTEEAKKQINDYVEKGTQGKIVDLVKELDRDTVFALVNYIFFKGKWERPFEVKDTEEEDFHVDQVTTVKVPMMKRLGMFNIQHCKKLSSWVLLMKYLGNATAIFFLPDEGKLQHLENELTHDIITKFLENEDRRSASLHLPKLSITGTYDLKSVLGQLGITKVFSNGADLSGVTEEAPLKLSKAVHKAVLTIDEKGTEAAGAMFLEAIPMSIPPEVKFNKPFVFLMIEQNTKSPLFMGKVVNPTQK
# B1: human neutrophil elastase (protein)
# chain: IVGGRRARPHAWPFMVSLQLRGGHFCGATLIAPNFVMSAAHCVANVNVRAVRVVLGAHNLSRREPTRQVFAVQRIFENGYDPVNLLNDIVILQLNGSATINANVQVAQLPAQGRRLGNGVQCLAMGWGLLGRNRGIASVLQELNVTVVTSLCRRSNVCTLVRGRQAGVCFGDSGSPLVCNGLIHGIASFVRGGCASGLYPDAFAPVAQFVNWIDSIIQ
# Target: α1-antitrypsin, P01009
protein,measurement,value
B1,elastin cleavage fluorescence,"Intact α1-antitrypsin inhibited neutrophil elastase, indicated by a lack of elastin fluorescence"
